Test results: article PMC7876115, “Flagellin-based electrochemical sensing layer for arsenic detection in water” (2021)

Key:
Experiment in all cases: isothermal titration calorimetry, one-binding-site model
FliC-ArsR6 = settings: 100 mM HEPES, 150 mM NaCl, 1 mM TCEP, pH 7.0, 25 °C, 10% DMSO, N = 0.5, protein ~50 µM in legend, ~5 µM in methods
FliC-ArsR10 = settings: 100 mM HEPES, 150 mM NaCl, 1 mM TCEP, pH 7.0, 25 °C, 10% DMSO; N = 0.5; protein ~50 µM in legend, ~5 µM in methods
FliC-ArsR9 = settings: 100 mM HEPES, 150 mM NaCl, 1 mM TCEP, pH 7.0, 25 °C, 10% DMSO; N = 0.5; protein ~50 µM in legend, ~5 µM in methods; N = 0.2

O=[As]c1ccccc1 (stereo not drawn)
Kd (FliC-ArsR6): 6.3·10^−7 M
Kd (FliC-ArsR10): 3.7·10^−7 M
Kd (FliC-ArsR9): 6.9·10^−7 M
